In the assay the target is Collagenase 3 (Homo sapiens, UniProt P45452). The assay is described as follows: Inhibitory activity against matrix metalloprotease 13 (MMP-13).

The term IC50 denotes the concentration at which inhibition is half-maximal. The low end stands for higher potency, the high end for lower potency. In turn, `CC#CCOc1ccc(S(=O)(=O)N(C)c2c(C(=O)NO)cnc3c2c(C)nn3C)cc1` returned a half-maximal inhibitory concentration (IC50) of 100 nM.

Values taken from ChEMBL document CHEMBL1136711, “Synthesis and SAR of bicyclic heteroaryl hydroxamic acid MMP and TACE inhibitors” (Bioorg Med Chem Lett, 2003).
